Amino acid sequences for entries named in this document (tags omitted). A change or cut given only in a name is not applied to a line headed by its entry.
UniProt P08254: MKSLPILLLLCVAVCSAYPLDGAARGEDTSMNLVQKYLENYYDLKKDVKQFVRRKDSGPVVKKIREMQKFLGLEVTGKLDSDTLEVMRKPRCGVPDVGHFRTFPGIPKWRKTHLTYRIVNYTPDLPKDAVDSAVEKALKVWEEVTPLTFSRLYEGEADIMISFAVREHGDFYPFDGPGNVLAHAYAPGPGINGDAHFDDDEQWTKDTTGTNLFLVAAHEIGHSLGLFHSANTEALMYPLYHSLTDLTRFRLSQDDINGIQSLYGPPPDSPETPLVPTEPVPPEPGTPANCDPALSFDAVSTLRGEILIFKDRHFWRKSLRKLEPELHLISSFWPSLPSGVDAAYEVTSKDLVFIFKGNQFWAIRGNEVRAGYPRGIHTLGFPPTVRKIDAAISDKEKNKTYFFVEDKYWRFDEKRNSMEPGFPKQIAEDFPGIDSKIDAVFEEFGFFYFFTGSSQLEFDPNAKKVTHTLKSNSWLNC

According to ChEMBL document CHEMBL1130107, “Discovery of CGS 27023A, a non-peptidic, potent, and orally active stromelysin inhibitor that blocks cartilage degradation in rabbits” (J Med Chem, 1997):

Target: Stromelysin-1 (Homo sapiens, UniProt P08254)
Experiment: Inhibition activity against recombinant human stromelysin (Matrix metalloprotease-3)

| SMILES | Ki |
| --- | --- |
| CC(C)CN(CC(=O)NO)S(=O)(=O)c1ccc(C(F)(F)F)cc1 | 5.35 µM |
| CC(C)CN(CC(=O)NO)S(=O)(=O)c1ccccc1 | 1.76 µM |
| Cc1ccc(S(=O)(=O)N(CC(=O)NO)CC(C)C)cc1 | 3.27 µM |
| COc1ccc(S(=O)(=O)N(CCCCc2ccccc2)CC(=O)NO)cc1 | 0.1 µM |
| COc1ccc(S(=O)(=O)N(CC(=O)NO)Cc2ccc(Cl)cc2)cc1 | 0.094 µM |
| COc1ccc(S(=O)(=O)N(Cc2ccccc2)[C@H](COC(C)(C)C)C(=O)NO)cc1 | 0.048 µM |
| COc1ccc(S(=O)(=O)N(Cc2ccccc2)[C@H](CCCCNC(=O)OCc2ccccc2)C(=O)NO)cc1 | 0.07 µM |
| COc1ccc(S(=O)(=O)N(Cc2cccnc2)[C@H](CC(C)C)C(=O)NO)cc1 | 0.046 µM |
| COc1ccc(S(=O)(=O)N(CC(=O)NO)Cc2cc(OC)c(OC)c(OC)c2)cc1 | 0.151 µM |
| COc1ccc(S(=O)(=O)N(CC(=O)NO)Cc2ccc(-c3ccccc3)cc2)cc1 | 0.107 µM |
| COc1ccc(S(=O)(=O)N(CC(=O)NO)Cc2cccnc2)cc1 | 0.113 µM |
| COc1ccc(S(=O)(=O)N(CC(=O)NO)Cc2ccccn2)cc1 | 0.09 µM |
| CC(C)CN(CC(=O)NO)S(=O)(=O)c1ccc(OC(C)C)cc1 | 0.336 µM |
| COc1ccc(S(=O)(=O)N(CC(=O)NO)Cc2ccncc2)cc1 | 0.192 µM |
| CC(C)CN(CC(=O)NO)S(=O)(=O)c1ccc(N)cc1 | 5 µM |
| COc1ccc(S(=O)(=O)N(Cc2cccnc2)[C@H](CC(C)(C)C)C(=O)NO)cc1 | 0.042 µM |
| COc1ccc(S(=O)(=O)N(CC(=O)NO)C2CCCCC2)cc1 | 1.26 µM |
| COc1ccc(S(=O)(=O)N(Cc2cccnc2)[C@H](CCCCN(C)C)C(=O)NO)cc1 | 0.081 µM |
| COc1ccc(S(=O)(=O)N(Cc2ccccc2)[C@H](CCCCN(C)C)C(=O)NO)cc1 | 0.069 µM |
| COc1ccc(S(=O)(=O)N(Cc2ccccc2)C(CCN2CCOCC2)C(=O)NO)cc1 (centres undefined) | 0.05 µM |
| CCCCCCOc1ccc(S(=O)(=O)N(CC(=O)NO)CC(C)C)cc1 | 0.063 µM |
| CC(C)CN(CC(=O)NO)S(=O)(=O)c1ccc(Cl)cc1 | 0.943 µM |

| SMILES | Ki |
| --- | --- |
| COc1ccc(S(=O)(=O)N(Cc2ccccc2)[C@H](CC(C)(C)C)C(=O)NO)cc1 | 0.028 µM |
| CC(C)CCOc1ccc(S(=O)(=O)N(CC(=O)NO)CC(C)C)cc1 | 0.078 µM |
| COc1ccc(S(=O)(=O)N(CCc2ccccc2)CC(=O)NO)cc1 | 0.066 µM |
| CC(C)CN(CC(=O)NO)S(=O)(=O)c1ccc(F)cc1 | 3.27 µM |
| COc1ccc(S(=O)(=O)N(Cc2ccccc2)C(Cc2ccc(O)cc2)C(=O)NO)cc1 (centres undefined) | 0.065 µM |
| COc1ccc(S(=O)(=O)N(Cc2ccccc2)[C@@H](C(=O)NO)c2ccccc2)cc1 | 0.104 µM |
| COc1ccc(S(=O)(=O)N(Cc2ccccc2)[C@H](CCS(C)(=O)=O)C(=O)NO)cc1 | 0.085 µM |
| CCOCCOc1ccc(S(=O)(=O)N(CC(=O)NO)CC(C)C)cc1 | 1.13 µM |
| COc1ccc(S(=O)(=O)N(CCN2CCCCC2)CC(=O)NO)cc1 | 1.13 µM |
| CCCCOc1ccc(S(=O)(=O)N(CC(=O)NO)CC(C)C)cc1 | 0.058 µM |
| COc1ccc(S(=O)(=O)N(Cc2ccccc2)[C@H](CCSC)C(=O)NO)cc1 | 0.031 µM |
| COc1ccc(S(=O)(=O)N(CC(=O)NO)Cc2cccc(OC)c2)cc1 | 0.07 µM |
| COc1ccc(S(=O)(=O)N(CC(=O)NO)CC(F)(F)F)cc1 | 0.305 µM |
| COc1ccc(S(=O)(=O)N(Cc2ccccc2)C(C(=O)NO)C(C)(C)C)cc1 (centres undefined) | 0.7 µM |
| CCC(C)N(CC(=O)NO)S(=O)(=O)c1ccc(OC)cc1 (centres undefined) | 1.82 µM |
| COc1ccc(S(=O)(=O)N(CCCc2ccccc2)CC(=O)NO)cc1 | 0.125 µM |
| COc1ccc(S(=O)(=O)N(CCC2CCCCC2)CC(=O)NO)cc1 | 0.038 µM |
| COc1ccc(S(=O)(=O)N(CCN2CCOCC2)CC(=O)NO)cc1 | 0.236 µM |
| COc1ccc(S(=O)(=O)N(Cc2ccccc2)[C@H](CC2CCCCC2)C(=O)NO)cc1 | 0.044 µM |
| COc1ccc(S(=O)(=O)N(CC(=O)NO)C(C)(C)C)cc1 | 2.5 µM |
| CCC(C)[C@H](C(=O)NO)N(Cc1ccccc1)S(=O)(=O)c1ccc(OC)cc1 (some centres undefined) | 0.039 µM |
| CC(C)CN(CC(=O)NO)S(=O)(=O)c1ccc(OCC2CCCCC2)cc1 | 0.061 µM |
